{
  "source": "paper PMC7770057",
  "about": "(Journal of medicinal chemistry, 2020)",
  "tested_on": "pMEK and pERK",
  "details": "for inhibition of MEK and ERK phosphorylation: 24 h, concentration-dependent; for time to maximum ERK phosphorylation inhibition / time to significant ERK phosphorylation inhibition: 0.1 μM",
  "note": "Read-outs that look alike come from different tables or passages of the source.",
  "data": [
    {"smiles": "O=C1CCC(N2C(=O)c3ccc(NCCOCCOCCOCCOCCOCCNCCCONC(=O)c4ccc(F)c(F)c4Nc4ccc(I)cc4F)cc3C2=O)C(=O)N1", "note": "(stereo not shown) [Compound 50, N-((1-((2-(2,6-Dioxopiperidin-3-yl)-1,3-dioxoisoindolin-5-yl)amino)-3,6,9,12,15-pentaoxa-18-azahenicosan-21-yl)oxy)-3,4-di-fluoro-2-((2-fluoro-4-iodophenyl)amino)benzamide]", "values": [
      {"measurement": "inhibition of MEK and ERK phosphorylation", "setting": "HT-29 cells", "value": "inhibited MEK and ERK phosphorylation"},
      {"measurement": "inhibition of MEK and ERK phosphorylation", "setting": "SK-MEL-28 cells", "value": "inhibited MEK and ERK phosphorylation"}
    ]},
    {"smiles": "Cc1ncsc1-c1ccc([C@H](C)NC(=O)[C@@H]2C[C@@H](O)CN2C(=O)[C@@H](NC(=O)CCCCCCCCCCN(C)CCCONC(=O)c2ccc(F)c(F)c2Nc2ccc(I)cc2F)C(C)(C)C)cc1", "note": "[Compound 24, (2S,4R)-1-((S)-20-(tert-Butyl)-1-(3,4-difluoro-2-((2-fluoro-4-iodophenyl)amino)phenyl)-7-methyl-1,18-dioxo-3-oxa-2,7,19-triazahenicosan-21-oyl)-4-hydroxy-N-((S)-1-(4-(4-methylthiazol-5-yl)phenyl)ethyl)pyrrolidine-2-carboxamide]", "values": [
      {"measurement": "time to maximum ERK phosphorylation inhibition", "setting": "HT-29 cells", "value": "≤ 8", "unit": "h"},
      {"measurement": "time to significant ERK phosphorylation inhibition", "setting": "HT-29 cells", "value": "≤ 2", "unit": "h"},
      {"measurement": "inhibition of MEK and ERK phosphorylation", "setting": "HT-29 cells", "value": "inhibited phosphorylation of MEK and ERK"},
      {"measurement": "inhibition of MEK and ERK phosphorylation", "setting": "SK-MEL-28 cells", "value": "inhibited phosphorylated MEK and ERK levels"}
    ]},
    {"smiles": "Cc1ncsc1-c1ccc([C@H](C)NC(=O)[C@@H]2C[C@@H](O)CN2C(=O)[C@@H](NC(=O)CCCCCCCCCCCNCCCCONC(=O)c2ccc(F)c(F)c2Nc2ccc(I)cc2F)C(C)(C)C)cc1", "note": "[Compound 27, (2S,4R)-1-((S)-22-(tert-Butyl)-1-(3,4-difluoro-2-((2-fluoro-4-iodophenyl)amino)phenyl)-1,20-dioxo-3-oxa-2,8,21-triazatricosan-23-oyl)-4-hydroxy-N-((S)-1-(4-(4-methylthiazol-5-yl)phenyl)ethyl)pyrrolidine-2-carboxamide]", "values": [
      {"measurement": "time to maximum ERK phosphorylation inhibition", "setting": "HT-29 cells", "value": "≤ 8", "unit": "h"},
      {"measurement": "time to significant ERK phosphorylation inhibition", "setting": "HT-29 cells", "value": "≤ 2", "unit": "h"},
      {"measurement": "inhibition of MEK and ERK phosphorylation", "setting": "HT-29 cells", "value": "inhibited phosphorylation of MEK and ERK"},
      {"measurement": "inhibition of MEK and ERK phosphorylation", "setting": "SK-MEL-28 cells", "value": "inhibited phosphorylated MEK and ERK levels"}
    ]}
  ]
}
